{"source": "patent US8828925B2", "about": "“Etoposide and doxorubicin conjugates for drug delivery” (Angiochem Inc., priority 2008, dated 2014)", "tested_on": "mouse brain", "experiment": "in situ brain perfusion (brain uptake)", "data": [{"substance": "(Etoposide-4′-Dimethylglycine-2″-Glutaric)3-Angiopep-2 Conjugate [EtopDMG-An2(3:1)]", "values": [{"measurement": "Brain Kin", "value": 0.0014, "unit": "mL/s/g"}]}]}
